Sequences of proteins named here, by UniProt entry; tags and fusion partners are left off. A change or cut given only in a name is not applied to a line headed by its entry.
UniProt P18901, whole entry: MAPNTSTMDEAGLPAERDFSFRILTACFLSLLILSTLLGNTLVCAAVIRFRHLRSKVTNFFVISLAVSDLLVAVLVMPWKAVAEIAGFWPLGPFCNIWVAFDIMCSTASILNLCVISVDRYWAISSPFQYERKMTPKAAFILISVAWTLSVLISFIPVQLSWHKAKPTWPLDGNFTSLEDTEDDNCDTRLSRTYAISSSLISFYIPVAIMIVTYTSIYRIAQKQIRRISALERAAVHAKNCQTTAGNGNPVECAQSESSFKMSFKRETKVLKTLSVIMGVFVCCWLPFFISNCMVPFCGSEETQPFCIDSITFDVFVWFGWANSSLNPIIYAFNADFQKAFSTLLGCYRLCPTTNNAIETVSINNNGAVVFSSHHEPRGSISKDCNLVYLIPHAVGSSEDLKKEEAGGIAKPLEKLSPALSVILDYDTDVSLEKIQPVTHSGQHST

In article PMC3805374 (Life sciences, 2013):

Tests used:
[1] = molecular target: HA-rat D1 dopamine receptor (D1R) (Rattus norvegicus, UniProt P18901); test: Saturation binding of [3H]SCH23390 to the D1R in NG 108-15-HA-D1R cell membranes
HA-D1R = HA-D1R (Rattus norvegicus, UniProt P18901); type: binding; conditions: CHO-FLAG-DOPR/HA-D1R

CN1CCc2cc(Cl)c(O)cc2C(c2ccccc2)C1 (centres unmarked) [[^3H]SCH23390]
Bmax of [3H]SCH23390 binding to the D1R [1]: 180 ± 34 fmol/mg protein
Bmax of [3H]SCH23390 binding to the D1R (HA-D1R): 2.17±0.14 pmol/mg protein
Bmax of [3H]SCH23390 binding (HA-D1R; control (vehicle pretreatment 30 min), Table 3): 2.17 ± 0.14 fmol/mg protein
Bmax of [3H]SCH23390 binding (HA-D1R; pretreatment DPDPE 10 μM 30 min): 2.04 ± 0.12 fmol/mg protein
Bmax of [3H]SCH23390 binding (HA-D1R; pretreatment SKF-82958 10 μM 30 min): 2.54 ± 0.88 fmol/mg protein

Where two headings read alike, the source gives them in different places.
